The values that follow come from paper PMC4239318, “Quantitative investigation of the affinity of human respiratory syncytial virus phosphoprotein C-terminus binding to nucleocapsid protein” (Virology Journal, 2014).

By UniProt entry, the sequences of proteins in these tests, tags left out. Residues count along the entry.
UniProt P03418, 13-391: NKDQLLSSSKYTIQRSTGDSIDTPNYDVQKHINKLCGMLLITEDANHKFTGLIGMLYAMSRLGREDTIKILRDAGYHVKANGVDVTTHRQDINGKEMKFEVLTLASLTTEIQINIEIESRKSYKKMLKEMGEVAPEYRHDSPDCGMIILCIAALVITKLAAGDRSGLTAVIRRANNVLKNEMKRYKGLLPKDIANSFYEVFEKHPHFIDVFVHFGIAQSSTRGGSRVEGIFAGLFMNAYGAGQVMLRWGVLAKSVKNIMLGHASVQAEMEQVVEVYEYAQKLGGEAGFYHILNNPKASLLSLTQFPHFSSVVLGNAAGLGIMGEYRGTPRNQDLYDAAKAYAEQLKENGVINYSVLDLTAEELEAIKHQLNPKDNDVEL

In the assay the target is RSV-N(13-391) (Human respiratory syncytial virus A, UniProt P03418). The note with it: 200 μM peptide, highest concentration tested. Here is the method:
Samples of 10 μl containing peptides and proteins as indicated were prepared in buffer composed of 10 mM Tris-HCl (pH 7.5) +0.01% Brij-35 detergent (Pierce Surfact-Amps-35, Thermo Fisher Scientific, Rockford, IL) in low-volume 384-well black polystyrene assay plates (Thermo Fisher Scientific, Hudson, NH). After a 5 minute incubation, fluorescence anisotropy was measured with a Pherastar plate reader (BMG Labtech, Cary, NC) equipped with a filter module having a 485 nm excitation filter and 520 nm emission filters with polarizers. The focal height was 10.8 mm. Each measurement used 50 flashes. The parallel and perpendicular detector gains were set to 392 and 366 in order to produce an anisotropy of about 0.03 in the absence of binding. […]
All fluorescence anisotropy measurements were performed at ambient temperature, approximately 21°C.
For the BP5 competition assay, the P protein storage buffer was replaced by repeated concentration using centrifugal ultrafiltration with a Millipore Ultrafree 0.5 unit with Biomax-10 membrane (EMD Millipore, Billerica, MA) and dilution with 10 mM Tris-HCl (pH 7.5). The protein concentration was determined by the method of Bradford using bovine serum albumin as the standard. […]

Consider `CC(C)C[C@H](NC(=O)[C@H](CO)NC(=O)[C@H](CC(C)C)NC(=O)[C@H](CC(=O)O)NC(=O)[C@H](CC(N)=O)NC(=O)[C@H](CC(=O)O)NC(=O)[C@H](CO)NC(=O)[C@@H](N)CC(=O)O)C(=O)N[C@@H](CCC(=O)O)C(=O)N[C@@H](CC(=O)O)C(=O)N[C@@H](C)C(=O)O`, for which the “Inhibition of BP5 binding to N(13-391)” value is listed as “about 25%”.
